Data on 59 compounds can be found in patent US20260384394A1, “(HETERO)ARYL-CARBONYL-HETEROBICYCLIC COMPOUNDS AS INHIBITORS OF PMS2 FOR CANCER AND DEGENERATIVE ILLNESSES” (published 2026).

Chains of the proteins cited; added tags and fusions are not shown. Residues count along the entry.
UniProt P54278, 1-365 limits assumed: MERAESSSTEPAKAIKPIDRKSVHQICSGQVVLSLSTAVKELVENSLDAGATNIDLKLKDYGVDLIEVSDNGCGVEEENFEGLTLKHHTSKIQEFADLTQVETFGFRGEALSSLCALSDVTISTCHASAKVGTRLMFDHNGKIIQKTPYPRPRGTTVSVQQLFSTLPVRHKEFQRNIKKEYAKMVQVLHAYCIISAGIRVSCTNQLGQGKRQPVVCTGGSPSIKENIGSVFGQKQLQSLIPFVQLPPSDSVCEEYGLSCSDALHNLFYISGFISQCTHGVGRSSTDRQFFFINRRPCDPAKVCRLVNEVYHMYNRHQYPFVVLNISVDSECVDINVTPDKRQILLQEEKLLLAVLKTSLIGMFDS

One may read the IC50 as the concentration that inhibits the measured activity by half.

For the assay, the target named is recombinant N-terminal PMS2 (residues 1-365) (Homo sapiens, UniProt P54278). The experiment in a line: Fluorescence Polarisation Assay for PMS2 (displacement of fluorescent probe compound). The conditions noted are these: read-out: PMS2 IC50, 10 nM N-terminal PMS2, 5 nM probe compound, pH 7.5, room temperature, 30 min pre-incubation then 1 hour. Here is the method:
Fluorescence Polarisation Assay for PMS2
Test compounds, as 10 mM DMSO stocks, were dispensed into a Black Fluotrac 200 384 well medium binding plate (Greiner Bio-One, item number 781076) using a Labcyte Echo acoustic liquid handler. For single point screening, test compounds were added to wells in columns 1-22 whilst DMSO was added to wells in columns 23 and 24 in order to normalise the plate. For potency determination, serial dilutions of test compounds were added to wells in columns 3-22 and DMSO volume was normalised across the plate.
20 μL of a 2× solution (20 nM) of recombinant N-terminal PMS2 (residues 1-365) in assay buffer (25 mM HEPES, pH 7.5, 250 mM NaCl, 10 mM MgCl2, 0.01% Triton X-100, 5 mM Dithiothreitol) was added to all wells in columns 2-23 for potency determination or columns 1-23 for single point screening. 20 μL assay buffer was added to all wells in columns 1 and 24 (column 24 only for single point screening) using a MultiDrop Combi (ThermoFisher). Plates were centrifuged for 1 minute at 250×g and were incubated at room temperature for 30 minutes prior to the addition of 20 μL of 2×(20 nM) of 5-((5-(4-((2-(2,4-dihydroxy-5-isopropylbenzoyl)isoindolin5-yl)methyl)piperazin-1-yl)pentyl)carbamoyl)-2-(6-(dimethylamino)-3-(dimethyliminio)-3H-xanthen-9-yl)benzoate (referred to hereinafter as “probe compound”) in assay buffer (prepared from a 100 μM DMSO stock) with a MultiDrop Combi (ThermoFisher). The final concentration of N-terminal PMS2 was 10 nM and the final concentration of probe compound was 5 nM.
Compound plates were centrifuged for 1 minute at 250×g for 1 minute and were incubated at room temperature for 1 hour before being read on a PheraStar FSX (fitted with 384-well aperture spoon and 540 590 590 FP optic module). The gain and focus were adjusted before each plate was read so that the polarisation of a no enzyme control (column 24) was equal to 35 mP. Data were normalised against the no inhibitor controls (column 23) and no enzyme controls (column 24).
On the technique in general: In fluorescence polarisation assays a small probe gives low polarisation when free and higher when bound to something large.

Bounds are passed on as bounds.

As for `C=CC(=O)N(C)c1cc2c(nc1C)CCN(C(=O)c1c(O)cc(OC)c(Cl)c1C)C2`, the IC50 fell in the range of 100 to 1000 nM. Regarding `Cc1cc2cc(C(=O)N3Cc4cccc(N(C)C(=O)/C=C/CN(C)C)c4C3)c(O)cc2[nH]1`, the IC50 was > 1000 nM. Under `Cc1cc(C(=O)N2Cc3cccc(NC(=O)/C=C/CN4CC(F)(F)C4)c3C2)c(O)cc1O` stands > 1000 nM. In the case of `Cc1cc(C(=O)N2Cc3cccc(N(Cc4ccncc4)C(=O)/C=C/CN(C)C)c3C2)c(O)cc1O`, the IC50 was < 100 nM. In the case of `CN(C)C/C=C/C(=O)N(C)c1cccc2c1CN(C(=O)c1cc3c(cc1O)NC(=O)C3(C)C)C2` it was 100 to 1000 nM; in that of `CN(C)C/C=C/C(=O)N(C)c1cccc2c1CN(C(=O)c1cc(C(F)(F)F)c(O)cc1O)C2`, 100 to 1000 nM; in that of `C=CC(=O)N(C)c1ccc2c(c1)CN(C(=O)c1cc(Cl)c(O)cc1O)CC2`, < 100 nM. In the case of `C=CC(=O)N(Cc1ccccc1)c1cccc2c1CN(C(=O)c1ccc(O)cc1O)C2`, the IC50 is > 1000 nM.

Regarding `COCCN(C(=O)/C=C/CN(C)C)c1cccc2c1CN(C(=O)c1cc(C)c(O)cc1O)C2`, the IC50 is < 100 nM. Under `CC(C)c1cc(C(=O)N2Cc3ccc(Cl)c(NC(=O)/C=C/CN(C)C)c3C2)ccc1O` stands 100 to 1000 nM; under `COc1cc(O)c(C(=O)N2Cc3ccc(Cl)c(N(C)C(=O)/C=C/CN(C)C)c3C2)c(C)c1Cl`, > 1000 nM; under `CN(C)C/C=C/C(=O)N(C)c1cccc2c1CN(C(=O)c1cc(C(C)(C)C)ccc1O)C2`, > 1000 nM. In the case of `C=CC(=O)N(C)c1cccc2c1CN(C(=O)c1cc3c(cc1O)NC(=O)C3(C)C)C2` it was > 1000 nM; in that of `C=CC(=O)N(C)c1cccc2c1CN(C(=O)c1cc(C)c(O)cc1O)C2`, 100 to 1000 nM.

Regarding `C=CC(=O)N(C)c1cc2c(nc1C)CCN(C(=O)c1cc(C(C)C)c(OC)cc1O)C2`, the IC50 is 100 to 1000 nM. Under `CN(C)C/C=C/C(=O)N(C)c1cccc2c1CN(C(=O)c1c(O)c(CO)cc(C(C)(C)C)c1F)C2` stands > 1000 nM; under `CN(C)C/C=C/C(=O)N(C)c1ccc2c(c1)CN(C(=O)c1cc(C(C)(C)C)c(F)cc1O)CC2`, > 1000 nM; under `C=CC(=O)N(Cc1ccccc1)c1cccc2c1CN(C(=O)c1cc(C)c(O)cc1O)C2`, 100 to 1000 nM. Under `CN(C)C/C=C/C(=O)N(C)c1cccc2c1CN(C(=O)c1cc(C(C)(C)C)c(O)cc1O)C2` stands < 100 nM.

Take `Cc1cc(C(=O)N2Cc3cccc(N(CCO)C(=O)/C=C/CN(C)C)c3C2)c(O)cc1O`: the IC50 is < 100 nM. Under `Cc1c(O)ccc(C(=O)N2Cc3cccc(N(C)C(=O)/C=C/CN(C)C)c3C2)c1C` stands 100 to 1000 nM; under `Cc1cc(C(=O)N2Cc3c(Cl)ccc(N(C)C(=O)/C=C/CN(C)C)c3C2)c(O)cc1O`, < 100 nM; under `CN(C)C/C=C/C(=O)N(C)c1cccc2c1CN(C(=O)c1cc3c(cc1O)NCC3(C)C)C2`, > 1000 nM. In the case of `C=CC(=O)N(c1ccc2c(c1)CN(C(=O)c1cc(C(C)C)c(OC)cc1O)CC2)C1CCN(C)C1` (centres unmarked) it was < 100 nM. Consider `COc1cc(O)c(C(=O)N2CCc3nc(OC)c(N(C)C(=O)/C=C/CN(C)C)cc3C2)cc1C(C)C`, for which the IC50 was 100 to 1000 nM. In the case of `CN(C)C/C=C/C(=O)N(C)c1cccc2c1CN(C(=O)c1c(O)cc(O)cc1Cl)C2` it was < 100 nM; in that of `CN(C)C/C=C/C(=O)N(C)c1cnc2c(c1)CN(C(=O)c1cc(C(C)(C)C)ccc1O)CC2`, > 1000 nM.

`Cc1cc(C(=O)N2Cc3cccc(N4CCC(=CCN(C)C)C4=O)c3C2)c(O)cc1O` (single isomer, unassigned): the IC50 was > 1000 nM.

Regarding `CN(C)C/C=C/C(=O)Nc1cccc2c1CN(C(=O)c1ccc(C(F)F)cc1O)C2`, the half-maximal inhibitory concentration (IC50) was > 1000 nM. Under `C=CC(=O)N(C)c1cc2c(cc1C)CCN(C(=O)c1cc(C(C)C)c(F)cc1O)C2` stands > 1000 nM; under `Cc1c(O)cc(O)c(C(=O)N2Cc3c(Cl)ccc(N(C)C(=O)/C=C/CN(C)C)c3C2)c1C`, < 100 nM. In the case of `CN(C)C/C=C/C(=O)Nc1cccc2c1CN(C(=O)c1cc3cn[nH]c3cc1O)C2` it was > 1000 nM.

As for `CN(C)C/C=C/C(=O)Nc1cccc2c1CN(C(=O)c1cc(C(C)(C)C)c(O)cc1O)C2`, the half-inhibitory concentration (IC50) is < 100 nM. Under `C=CC(=O)N(C)c1cccc2c1CN(C(=O)c1c(O)cc(O)c(Cl)c1C)C2` stands < 100 nM; under `Cc1cc(O)cc(O)c1C(=O)N1CCc2ccc(NC(=O)/C=C/CN(C)C)cc2C1`, 100 to 1000 nM. In the case of `C=CC(=O)N(C)c1ccc2c(c1)CN(C(=O)c1cc(Cl)c(OC)cc1O)CC2` it was 100 to 1000 nM. In the case of `CN(C)C/C=C/C(=O)Nc1cccc2c1CN(C(=O)c1ccc(O)cc1F)C2` it was > 1000 nM; in that of `Cc1c(Cl)c(O)cc(O)c1C(=O)N1Cc2cccc(N(C)C(=O)/C=C/CN(C)C)c2C1`, < 100 nM; in that of `C=CC(=O)Nc1cnc2c(c1)CN(C(=O)c1cc(C(C)C)c(OC)cc1O)CC2`, > 1000 nM. For the compound `Cc1[nH]c2cc(O)c(C(=O)N3Cc4cccc(N(C)C(=O)/C=C/CN(C)C)c4C3)cc2c1C`, the IC50 lay within 100 to 1000 nM. Under `COc1cc(O)c(C(=O)N2Cc3ccc(Cl)c(N(C)C(=O)/C=C/CN(C)C)c3C2)cc1Cl` stands 100 to 1000 nM; under `CC#CC(=O)N(C)c1cc2c(cc1OCCN(C)C)CCN(C(=O)c1c(O)cc(OC)c(Cl)c1C)C2`, > 1000 nM. Under `Cc1cc(C(=O)N2Cc3cccc(N(C)C(=O)/C=C/CN(C)C)c3C2)c(O)cc1OC(F)F` stands > 1000 nM; under `CC(C)c1cc(C(=O)N2Cc3cccc(N(C)C(=O)/C=C/CN(C)C)c3C2)ccc1O`, > 1000 nM. In the case of `C=CC(=O)N(C)c1ccc2c(c1)CN(C(=O)c1cc3c(cc1O)NC(=O)C3(C)C)CC2` it was 100 to 1000 nM; in that of `CC(C)c1cc(C(=O)N2Cc3ccc(Cl)c(N(C)C(=O)/C=C/CN(C)C)c3C2)ccc1O`, 100 to 1000 nM. For the compound `COc1cc(C(=O)N2Cc3cccc(NC(=O)/C=C/CN(C)C)c3C2)c(O)cc1O`, the IC50 lay within 100 to 1000 nM. Consider `C=CC(=O)N(C)c1ccc2c(c1)CN(C(=O)c1c(O)ccc(C(C)(C)C)c1F)CC2`, for which the IC50 was 100 to 1000 nM. Under `C=CC(=O)N(C)c1cc2c(cn1)CCN(C(=O)c1c(O)cc(OC)c(Cl)c1C)C2` stands < 100 nM; under `Cc1cc(C(=O)N2Cc3cccc(N(C)C(=O)/C=C/CN(C)C)c3C2)c(O)cc1O`, < 100 nM. Under `CC(C)c1cc(C(=O)N2Cc3cccc(NC(=O)/C=C/CN(C)C)c3C2)ccc1O` stands > 1000 nM. In the case of `CN(C)C/C=C/C(=O)N(CCc1ccccc1)c1cccc2c1CN(C(=O)c1ccc(O)cc1O)C2` it was < 100 nM; in that of `Cc1cc(C(=O)N2Cc3cccc(NC(=O)/C=C/CN(C)C)c3C2)ccc1O`, > 1000 nM; in that of `CN(C)C/C=C/C(=O)Nc1cccc2c1CN(C(=O)c1ccc(O)cc1C(F)F)C2`, > 1000 nM. For the compound `CN(C)C/C=C/C(=O)N(C)c1ccc2c(c1)CN(C(=O)c1c(O)ccc(C(C)(C)C)c1F)CC2`, the concentration for half-maximal inhibition (IC50) was in the range of 100 to 1000 nM. Under `CN(C)C/C=C/C(=O)Nc1cccc2c1CN(C(=O)c1ccc(N)cc1O)C2` stands > 1000 nM; under `Cc1c(C(=O)N2Cc3ccc(Cl)c(NC(=O)/C=C/CN(C)C)c3C2)ccc(O)c1Cl`, 100 to 1000 nM; under `Cc1cc(C(=O)N2Cc3cccc(N(Cc4ccccc4)C(=O)/C=C/CN(C)C)c3C2)c(O)cc1O`, < 100 nM. In the case of `C=CC(=O)Nc1cccc2c1CN(C(=O)c1c(C)cc(O)cc1O)C2` it was 100 to 1000 nM.
